PubChem BioAssay AID1745853 (National Center for Advancing Translational Sciences (NCATS), 2022)
This is a selection; strong and weak results do not stand in their true shares. Results filed as inconclusive are left out. Some salts and complexes are drawn in separate pieces, as the source files them; their charges need not balance. The source made the active and inactive calls. How the calls were made is not given here.

By UniProt entry, the sequences of proteins in these tests, tags left out.
UniProt P21964, whole entry: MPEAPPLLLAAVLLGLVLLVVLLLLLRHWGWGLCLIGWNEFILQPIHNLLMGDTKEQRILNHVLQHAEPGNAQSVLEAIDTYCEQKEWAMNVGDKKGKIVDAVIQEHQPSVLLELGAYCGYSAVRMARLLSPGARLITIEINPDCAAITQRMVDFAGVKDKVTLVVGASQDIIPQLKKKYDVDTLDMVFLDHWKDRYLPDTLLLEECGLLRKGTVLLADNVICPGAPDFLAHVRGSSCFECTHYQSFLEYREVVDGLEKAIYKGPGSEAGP

molecular target: Catechol O-methyltransferase (Homo sapiens) (UniProt P21964); test: Primary Screen for Target Class Profiling of Small Molecule Inhibitors of Methyltransferases; details: purified enzyme, MTase-Glo SAH luminescence; at 40 µM; hits give low values
Source text: PI: Matthew D. Hall Ph.D. and Quinlin M. Hanson Ph.D.
National Center for Advancing Translational Sciences (NCATS)
National Institute of Health (NIH), Rockville, MD
Target class profiling (TCP) is a chemical biology approach amenable to investigating understudied biological targets. TCP is achieved by developing a generalizable assay platform and applying it to screen a curated set of compound libraries against representative members of a target class. Small molecule methyltransferases (SMMTase) are a subclass of methyltransferase that act on metabolites to modulate signaling pathways, metabolize xenobiotics, or balance the available methyl pool. […]
High-through put screening assays were developed at the National Center for Advancing Translational Science (NCATS) for the enzymes NNMT, PNMT, HNMT, GNMT, COMT, and GAMT. Enzymatic activity was measured as a function of SAM cofactor conversion using the MTase Glo kit (Promega) for all enzymes. […] The IC50 and efficacy (maximal response) values were determined for each dose-response curve. […]
10; Time; 30 min; Incubation, luminescence evolution.
11; Detection; Luminescence; ViewLux uHTS Microplate Imager (PerkinElmer). […]
On the % scale 0 is the no-effect control and ±100 the full control effect.

Row | Structure (SMILES) | activity change, negative = inhibition
1 | C/C1=C2N=C(/C=C3N=C(/C(C)=C4\N=C(C(CC(N)=O)C4(C)CCC(=O)NCC(C)OP(=O)([O-])OC4C(CO)OC(n5cnc6cc(C)c(C)cc65)C4O)C4(C)N=C1C(CCC(N)=O)C4(C)CC(N)=O)C(CCC(N)=O)C\3(C)C)C(CCC(N)=O)C/2(C)CC(N)=O.[C-]#N.[Co] (configuration not stated) | active: -21.6%
2 | CCOP(=O)(CC)Oc1ccc([N+](=O)[O-])cc1 (configuration not stated) | inactive: -2.63%
